System: Lactococcus lactis subsp. lactis JCM5805 strain
Assay: Growth promoting effect, MRS medium, anaerobic cultivation (OD600)
Format: cell-based
Conditions: FIG. 1B
Description: A Lactococcus lactis subsp. lactis JCM5805 strain was used as the lactic acid coccus.
The bacteria were counted by measuring the OD600 (turbidity) of the medium using an absorbance meter (Biochrom GeneQuant 1300).
Measured values were expressed as mean±standard error. One-way analysis of variance was followed by Tukey's test, and cases where p<0.05 relative to the control group were evaluated as having a significant difference.

SMILES: O=C([O-])CCC(=O)C(=O)[O-].[Na+].[Na+] [αKG2Na, disodium α-ketoglutarate]
- growth of the lactic acid coccus (OD600) as compared with the control (0.01% by mass): tended to be promoted
- growth of the lactic acid coccus (OD600) as compared with the control (concentration of 0.1 to 4% by mass): significantly promoted in a concentration-dependent manner
